Test results taken from patent US20100204117A1, “CGRP AS A THERAPEUTIC AGENT” (priority 2008, published 2010).

Key:
HUVEC = assay: Endothelial tube formation assay; format: cell-based, human; details: 10 micrograms per ml, 20 hours
[1] = tested on: Primary Human endothelial cells (HUVEC); assay: Endothelial cell migration assay; format: cell-based; details: 10 micrograms per ml, 22 hours
spleen cells = assay: Th1/Th2 cytokine profiling assay (Ovalbumin-restimulated spleen cells, CBA kit); format: cell-based, Balb/c mice; details: 10 micrograms per ml; Ovalbumin restimulation; 72 hours
Experimental: The Balb/c mice (originated in 1923, it is a popular strain and is used in many different research disciplines. […] On day 50, spleens of the mice were harvested (3 weeks after last boost with Ovalbumin). […] Thereafter, additional Ovalbumin was added to the cells at 10 micrograms/ml for in vitro restimulation of the cells. 72 hours later, cell supernatants were harvested and assayed using the Becton Dickinson Mouse Th1/Th2 Cytokine CBA Kit. This kit can be used to measure Interleukin-2 (IL-2), Interleukin-4 (IL-4), Interleukin-5 (IL-5), Interferon-γ (IFN-γ), and Tumor Necrosis Factor-α (TNF-α) protein levels in a single sample. The kit performance has been optimized for analysis of physiologically relevant concentrations ([…] levels) of specific cytokine proteins in tissue culture supernatants and serum samples.

[2] = tested on: hepatitis B virus (HBV) ayw strain; assay: HBV assay in HepG2-2.2.15 cells (secreted HBV DNA, TaqMan PCR); format: cell-based; details: 10 micrograms per ml, six days
HCMV strain AD169 = assay: HCMV plaque formation assay in MRC-5 cells; details: 10 micrograms per ml, 7-10 days

Ala-Cys-Asp-Thr-Ala-Thr-Cys-Val-Thr-His-Arg-Leu-Ala-Gly-Leu-Leu-Ser-Arg-Ser-Gly-Gly-Val-Val-Lys-Asn-Asn-Phe-Val-Pro-Thr-Asn-Val-Gly-Ser-Lys-Ala-Phe-NH2 (ACDTATCVTHRLAGLLSRSGGVVKNNFVPTNVGSKAF; printed: Ala-Cys-Asp-Thr-Ala-Thr-Cys-Val-Thr-His-Arg-Leu-Ala-Gly-Leu-Leu-Ser-Arg-Ser-Gly-Gly-Val-Val-Lys-Asn-Asn-Phe-Val-Pro-Thr-Asn-Val-Gly-Ser-Lys-Ala-Phe-) [peptide 2]
inhibition of the tube formation of human endothelial cells (HUVEC): 4%
inhibition of the migration of human endothelial cells [1]: 11%
IFNγ spleen cells; TH1 response (% of control) (spleen cells): 16.2 % of control
IL-2 spleen cells (% of control) (spleen cells): 56.5 % of control
IL-4 spleen cells; TH2 response (% of control) (spleen cells): 76.6 % of control
IL-5 spleen cells; TH2 response (% of control) (spleen cells): 34.5 % of control
TNF-a spleen cells; TH1 response (% of control) (spleen cells): 71.8 % of control
inhibition of HBV replication as compared to the virus control infection [2]: 11.9%
inhibition of HCMV plaque formation as compared to the virus control experiment (HCMV strain AD169): did not show any inhibition
